## scFv variants of Ab-95 (light chain) against a SARS-CoV-2 spike peptide

All variants were tested on one target, the spike HR2 peptide PDVDLGDISGINAS (SARS-CoV-2).

Each scFv is VH, a (GGGGS)3 linker, VL, as in the parent Ab-95, and differs from it in the CDRs of the light chain only.
VH: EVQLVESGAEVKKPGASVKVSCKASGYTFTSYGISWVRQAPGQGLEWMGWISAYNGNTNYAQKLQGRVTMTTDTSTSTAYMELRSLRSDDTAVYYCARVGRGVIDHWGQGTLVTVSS
VL: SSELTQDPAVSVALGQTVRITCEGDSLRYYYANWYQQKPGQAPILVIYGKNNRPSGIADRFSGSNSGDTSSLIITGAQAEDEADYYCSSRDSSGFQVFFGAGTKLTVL

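The starting antibody came from a phage panning campaign against this peptide. The library (AAYL52) carries one to three amino acid substitutions per variant, with no insertions or deletions. AlphaSeq pools MATa yeast showing the antibodies with MATalpha yeast showing the peptide. Mating (16 h, 30 °C) was followed by selection of diploids and sequencing of their barcodes. Each replicate has its own calibration line, from reference interactions of the BCL2 family. There are three technical replicates.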

Each variant is given by its three light chain CDRs, as the data file delimits them; those of the parent are EGDSLRYYYAN, GKNNRPS, SSRDSSGFQVF. Each Kd is an estimate from the mating assay, the geometric mean of the replicates in which the pair was seen; lower is stronger. "not detected" means that the variant was in the library but no mating with the target was seen in any replicate; the authors take this as a sign of poor binding, and no number exists. Three control strains display no target. For library AAYL52, 28% of the pairings with them gave a signal, with a median of 8.2 µM and one signal in twenty below 800 nM, so weak values seen in few replicates may be background. For each scFv, signals with the empty controls are counted beside the result.

| CDR-L1 | CDR-L2 | CDR-L3 | Kd | detected | signal with controls |
|---|---|---|---|---|---|
| ECISLRYYYAN | TKNNRPS | SSRDSSGFQVF | 24 µM | 2 of 3 | 3 of 9 |
| EGVSGRYYYAN | GKNVRPS | SSRDSSGFQVF | 360 nM | 3 of 3 | 2 of 9 |
| EGDSLEYYYAK | GKQNRPS | SSRDSSGFQVF | 3.2 µM | 1 of 3 | 1 of 9 |
| EGDSFRYLYAN | GKNYRPS | SSRDSSGFQVF | not detected | 0 of 3 | 2 of 9 |
| EGDSLRYYYAN | GKNQRPS | SSRDSSGFQVR | 68 nM | 3 of 3 | 6 of 9 |
| EGDSLRKYIAN | GKNMRPS | SSRDSSGFQVF | 1.4 µM | 2 of 3 | 1 of 9 |
| EGKSLRYRYCN | GKNNRPS | SSRDSSGFQVF | 130 nM | 3 of 3 | 5 of 9 |
| EGDSLRYYNAN | GKNNWCS | SSRDSSGFQVF | 19 µM | 2 of 3 | 3 of 9 |
| EGDSLRYYYAN | GKNHNPS | SSRDSSGFQVF | 49 nM | 3 of 3 | 0 of 9 |
| EGDSLRYYYAN | GKNNFLS | SSRDSSGFQLF | 20 µM | 1 of 3 | 1 of 9 |
| EGDSLRDYYAN | GKNNRPS | SSRASFGFQVF | 85 nM | 3 of 3 | 0 of 9 |
| EGDSLRYYWAN | GKNNRMS | SSRDSSGFWVF | 3.5 µM | 3 of 3 | 7 of 9 |
| EGRSLRYYWAN | GINNRPS | SSRDSSGFQVF | 3.2 µM | 3 of 3 | 1 of 9 |
| EGQSWRYYYAN | GKNYRPS | SSRDSSGFQVF | 6.8 µM | 2 of 3 | 3 of 9 |
| EGDSLRYYYVN | GKNNRPS | SQRDSSGHQVF | 280 nM | 3 of 3 | 3 of 9 |
| ETDSLRYYYAT | GKNNRPS | SSSDSSGFQVF | 93 µM | 1 of 3 | 2 of 9 |
| ERDSLRYYYHN | GKNNRPS | SSRDSSGFQVE | 2.1 µM | 3 of 3 | 0 of 9 |
| EGDSLRYYYDN | GFHNRPS | SSRDSSGFQVF | 7.4 µM | 1 of 3 | 1 of 9 |
| EGDSLRYDYAN | GINNRPS | SSRDSSGFQQF | not detected | 0 of 3 | 4 of 9 |
| EGDSLRYYYRN | GKNNRPS | LVRDSSGFQVF | not detected | 0 of 3 | 2 of 9 |
| EGDSLRYYYHN | GKNYRPS | TSRDSSGFQVF | 53 µM | 2 of 3 | 5 of 9 |
| EGDSARYYYAN | GKNNRRS | SHRDSSGFQVF | not detected | 0 of 3 | 0 of 9 |
| EGDSARYYHAN | GKNNRPS | SSRDSSDFQVF | 48 µM | 1 of 3 | 2 of 9 |
| EGDSLRYYYAN | GKNGRPS | SSRDHSKFQVF | not detected | 0 of 3 | 1 of 9 |
| EEDSLRYYYAN | GKNNRPS | SSRDSSTFQWF | not detected | 0 of 3 | 2 of 9 |
| EGDSLRYYYAL | GKNNRGS | SSRDSSRFQVF | not detected | 0 of 3 | 0 of 9 |
| EGDSLRYYYAN | GGNNRPS | SSRISSGFQVF | not detected | 0 of 3 | 4 of 9 |
| EGDSQRYYYAN | GKNNRIS | SSRDSSGPQVF | 2.3 µM | 3 of 3 | 3 of 9 |
| EIDSLRYYYAN | GKNNRPR | SSRDSSGFQVF | 1.3 µM | 3 of 3 | 4 of 9 |
| EGQALRYYYAK | GKNNRPS | SSRDSSGFQVF | 46 µM | 1 of 3 | 2 of 9 |
| EGDSLRYYYAN | GKNGRPS | SSRDSSGKKVF | 2.4 µM | 2 of 3 | 1 of 9 |
| EGDSLRYYYAN | GKNNHPS | SSRDSTGIQVF | 970 nM | 3 of 3 | 3 of 9 |
| EGDSLRYYYAN | GKNNRPS | SHRWSSGFQSF | 80 nM | 3 of 3 | 4 of 9 |
| RGDSLRRYYAP | GKNNRPS | SSRDSSGFQVF | 2.2 µM | 2 of 3 | 4 of 9 |
| MYDSLRYYFAN | GKNNRPS | SSRDSSGFQVF | not detected | 0 of 3 | 2 of 9 |
| LLDSLRYYYAA | GKNNRPS | SSRDSSGFQVF | 3.2 µM | 2 of 3 | 4 of 9 |
| EGDSLRYYYGN | GLNNRPS | SSRDSSGFQVF | 8.9 µM | 2 of 3 | 1 of 9 |
| QCDSLTYYYAN | GKNNRPS | SSRDSSGFQVF | 1.3 µM | 3 of 3 | 2 of 9 |
| KGDSLYYYYAN | GKNNRPS | SSRDSCGFQVF | 18 µM | 3 of 3 | 1 of 9 |
| EGDSLRYYWAN | FKNNRPS | SSRDLSGFQVF | 3.0 µM | 1 of 3 | 3 of 9 |
| EGDSIRYIYAN | GKNNRPS | WSRDSSGFQVF | 8.1 µM | 1 of 3 | 2 of 9 |
| VTDSLRYYYAN | GKNNRPS | SSRDSSGFQVF | 1.2 µM | 2 of 3 | 4 of 9 |
| EGDKLRYYYAN | GTNNRPS | SSRDSSGFLVF | not detected | 0 of 3 | 2 of 9 |
| EGDSMRYYYAN | GKNNRPL | SSRDSSGPQVF | 1.4 µM | 3 of 3 | 4 of 9 |
| EGDSLRYYYAN | GKNQRPS | SSYDSSGFKVF | not detected | 0 of 3 | 1 of 9 |
| EGDSLRYYYHN | GKNNRPS | SSQDLSGFQVF | 7.3 µM | 1 of 3 | 4 of 9 |
| AGDSNRYYYAN | GKNNRPS | SSRDSSEFQVF | 7.0 µM | 2 of 3 | 4 of 9 |
| TGDSLRYYYAN | LKNNRPS | SSRDASGFQVF | 20 µM | 3 of 3 | 1 of 9 |
| EGDSLRYYYAY | GKNNRPS | SSRCASGFQVF | 11 µM | 1 of 3 | 4 of 9 |
| EGDSLRYLYAN | GKCWRPS | SSRDSSGFQVF | 3.0 µM | 1 of 3 | 2 of 9 |
| EGDSLRCYYAN | GKNNRPS | SSRFSSGFQVF | 3.8 µM | 3 of 3 | 5 of 9 |
| EGDSRRYYYAN | GKNNRPT | SSRDSSGFQVF | 990 nM | 3 of 3 | 3 of 9 |
| EGDSLRYHYAN | VKNNRPS | SERDSSGFQVF | not detected | 0 of 3 | 4 of 9 |
| EGDSLRYYYAN | GPNNRPS | SPRDSSGFQVF | 450 nM | 3 of 3 | 1 of 9 |
| EGDSHRDYYAN | AKNNRPS | SSRDSSGFQVF | 6.1 µM | 2 of 3 | 1 of 9 |

A selection of 5 entries from above:

{"CDR-L1": "EGDSMRYYYAN", "CDR-L2": "GKNNRPL", "CDR-L3": "SSRDSSGPQVF", "Kd": "1.4 µM", "detected": "3 of 3", "signal with controls": "4 of 9"}
{"CDR-L1": "EGDSLRYYYAN", "CDR-L2": "GKNGRPS", "CDR-L3": "SSRDSSGKKVF", "Kd": "2.4 µM", "detected": "2 of 3", "signal with controls": "1 of 9"}
{"CDR-L1": "ECISLRYYYAN", "CDR-L2": "TKNNRPS", "CDR-L3": "SSRDSSGFQVF", "Kd": "24 µM", "detected": "2 of 3", "signal with controls": "3 of 9"}
{"CDR-L1": "EGDSLRYYYDN", "CDR-L2": "GFHNRPS", "CDR-L3": "SSRDSSGFQVF", "Kd": "7.4 µM", "detected": "1 of 3", "signal with controls": "1 of 9"}
{"CDR-L1": "EGDSLRYYYAN", "CDR-L2": "GKNNHPS", "CDR-L3": "SSRDSTGIQVF", "Kd": "970 nM", "detected": "3 of 3", "signal with controls": "3 of 9"}

For reference, the parent read 200 nM as the reference entry and 180 nM as a member of this library.

Reference: Engelhart et al. 2022, doi:10.1038/s41597-022-01779-4. File: FLAb, binding data.